Literature values in US9278956B1, “Small-molecule inhibitors of Rac1 in metastatic cancer cells” (University of Puerto Rico, priority 2012, dated 2016).

Test system: Rac
Settings: cited from earlier work

Compound: CCN(CC)CCCC(C)Nc1nc(C)cc(Nc2ccc3nc(C)cc(N)c3c2)n1 (stereo not shown) [NSC23766]
- effective concentration as Rac inhibitor: 50 to 100 µM
